# Earlier results as cited in PubChem BioAssay AID1811 (Shanghai Institute of Organic Chemistry, 2009).
# The list shows a part of the results. The source made the active and inactive calls. Where no limit is named, active and inactive come without a cut-off here.
# System: leucine-specific binding protein
# Test: PubChem AID 1811
# Details: PDB complex binding affinities from literature
smiles,measurement,value
CC(C)C[C@H](N)C(=O)O,outcome,active
